Literature values in patent US20240335532A1, “NANOPARTICULATE FORMULATION” (NewImmune II, LLC, priority 2021, published 2024).

Tested on: ovalbumin
Conditions: topical, subcutaneous ovalbumin immunisation

## CC(C)Cn1cnc2c(N)nc3ccccc3c21 [imiquimod, 1-(2-methylpropyl)imidazo[4,5-c]quinolin-4-amine]
  antibody and cellular responses to immunisation: enhances both antibody responses and cellular responses
